Values of other authors, collected in US20190241968A1, “BIOMARKER FOR PREDICTING RESPONSIVENESS TO ANTICANCER AGENT FOR GASTRIC CANCER AND USE THEREOF” (SAMSUNG LIFE PUBLIC WELFARE FOUNDATION, priority 2018, published 2019).

Test system: HER2-overexpressed cardiac muscle cells
Conditions: human, in vivo; cited from earlier work

trastuzumab: anti-HER2 antibody
major dose-limiting effect: cardiotoxicity
